Measurements as given in patent publication US20100298380A1, “N-ARYL-N-PIPERIDIN-4-YLMETHYL-AMIDE DERIVATIVES AND THIER USE AS MONOAMINE NEUROTRANSMITTER RE-UPTAKE INHIBITORS” (published 2010).

Chains of the proteins cited; added tags and fusions are not shown. Residues count along the entry.
UniProt Q9WTR4, 1-597: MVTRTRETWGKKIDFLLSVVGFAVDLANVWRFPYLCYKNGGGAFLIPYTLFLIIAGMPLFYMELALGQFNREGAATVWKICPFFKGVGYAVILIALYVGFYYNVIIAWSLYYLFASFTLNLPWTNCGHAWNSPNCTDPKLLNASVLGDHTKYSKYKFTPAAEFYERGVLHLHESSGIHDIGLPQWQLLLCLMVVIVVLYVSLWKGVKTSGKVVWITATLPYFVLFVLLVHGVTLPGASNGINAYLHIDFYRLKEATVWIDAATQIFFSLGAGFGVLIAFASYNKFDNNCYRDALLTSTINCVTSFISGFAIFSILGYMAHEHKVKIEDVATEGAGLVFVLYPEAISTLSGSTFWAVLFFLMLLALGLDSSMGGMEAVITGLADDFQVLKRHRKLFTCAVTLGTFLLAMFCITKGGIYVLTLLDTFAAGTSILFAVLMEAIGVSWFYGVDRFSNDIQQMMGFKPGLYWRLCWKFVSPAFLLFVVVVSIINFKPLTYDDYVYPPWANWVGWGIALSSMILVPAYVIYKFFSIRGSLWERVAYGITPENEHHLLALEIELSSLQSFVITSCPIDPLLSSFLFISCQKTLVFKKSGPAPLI
UniProt P23977, whole entry, looked up: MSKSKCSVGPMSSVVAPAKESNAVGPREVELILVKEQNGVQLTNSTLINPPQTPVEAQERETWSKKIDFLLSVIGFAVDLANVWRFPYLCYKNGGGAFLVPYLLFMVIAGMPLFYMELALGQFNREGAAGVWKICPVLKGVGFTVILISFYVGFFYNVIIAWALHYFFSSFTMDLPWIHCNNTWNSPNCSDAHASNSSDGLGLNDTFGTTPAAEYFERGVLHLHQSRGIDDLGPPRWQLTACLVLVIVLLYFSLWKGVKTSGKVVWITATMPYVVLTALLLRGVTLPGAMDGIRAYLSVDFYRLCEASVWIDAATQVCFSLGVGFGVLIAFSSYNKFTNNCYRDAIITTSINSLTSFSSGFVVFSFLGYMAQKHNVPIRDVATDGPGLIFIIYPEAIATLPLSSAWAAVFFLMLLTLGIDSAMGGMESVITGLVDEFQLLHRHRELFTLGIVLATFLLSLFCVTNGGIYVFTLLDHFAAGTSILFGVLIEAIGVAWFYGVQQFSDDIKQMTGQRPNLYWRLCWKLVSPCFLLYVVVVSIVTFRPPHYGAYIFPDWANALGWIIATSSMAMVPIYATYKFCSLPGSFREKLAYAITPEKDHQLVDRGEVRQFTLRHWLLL
UniProt P31652, whole entry, looked up: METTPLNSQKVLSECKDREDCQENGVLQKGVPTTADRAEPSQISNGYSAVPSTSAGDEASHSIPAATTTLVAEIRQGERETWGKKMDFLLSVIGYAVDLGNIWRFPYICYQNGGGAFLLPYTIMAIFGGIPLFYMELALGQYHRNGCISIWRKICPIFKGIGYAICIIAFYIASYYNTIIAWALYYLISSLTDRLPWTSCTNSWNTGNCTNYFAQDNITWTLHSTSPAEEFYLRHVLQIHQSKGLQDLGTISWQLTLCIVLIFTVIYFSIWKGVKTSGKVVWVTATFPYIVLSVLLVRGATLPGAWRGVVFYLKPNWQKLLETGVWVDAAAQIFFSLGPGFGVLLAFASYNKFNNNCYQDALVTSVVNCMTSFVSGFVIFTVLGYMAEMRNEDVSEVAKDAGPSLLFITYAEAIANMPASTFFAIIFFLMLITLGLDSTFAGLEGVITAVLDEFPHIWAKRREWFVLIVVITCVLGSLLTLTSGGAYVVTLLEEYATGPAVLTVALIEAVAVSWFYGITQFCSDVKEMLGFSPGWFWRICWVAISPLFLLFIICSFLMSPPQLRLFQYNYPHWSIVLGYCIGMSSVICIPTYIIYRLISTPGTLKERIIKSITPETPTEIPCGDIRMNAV

Tests used:
[1] = biological target: reuptake of noradrenaline (NA) in synaptosomes (Rattus norvegicus, UniProt Q9WTR4); assay: inhibition of NA reuptake in synaptosomes; conditions: read-out: NA-uptake IC50, 3H-NA
[2] = biological target: reuptake of dopamine (DA) in synaptosomes (Rattus norvegicus, UniProt P23977); assay: inhibition of DA reuptake in synaptosomes; conditions: read-out: DA-uptake IC50, 3H-DA
[3] = biological target: reuptake of serotonine (5-HT) in synaptosomes (Rattus norvegicus, UniProt P31652); assay: inhibition of 5-HT reuptake in synaptosomes; conditions: read-out: 5-HT-uptake IC50, 3H-5-HT

SMILES	IC50 [1]	IC50 [2]	IC50 [3]
C=C(C)n1c(=O)n(CCN2CCC(CN(C(=O)CC)c3ccc(Cl)c(Cl)c3)CC2)c2ccccc21	20 nM	15 nM	1200 nM
CCC(=O)N(CC1CCN(CCn2c(=O)n(C3=CCCC3)c3ccccc32)CC1)c1ccc(Cl)c(Cl)c1	36 nM	13 nM	360 nM
C=C(C)n1c(=O)n(CCN2CCC(CN(C(=O)COC)c3ccc(Cl)c(Cl)c3)CC2)c2ccccc21	270 nM	240 nM	> 1000 nM
C=C(C)n1c(=O)n(CCN2CCC(CN(C(C)=O)c3ccc(Cl)c(Cl)c3)CC2)c2ccccc21	140 nM	340 nM	> 1000 nM
C=C(C)n1c(=O)n(CCN2CCC(CN(C(=O)CC)c3cccc(Cl)c3)CC2)c2ccccc21	160 nM	48 nM	1600 nM
